Reference: US20140335050A1, “METHODS, COMPOSITIONS, AND KITS FOR THE TREATMENT OF CANCER” (The General Hospital Corporation, priority 2011, published 2014)

What was measured:
Format in all cases: cell-based, human
MUX melanoma cell line = assay: Antibody staining and flow cytometry (intracellular Melan-A/MART-1, gp100, TRP-2; surface MHC Class I); conditions: three days, IFN-β 5000 Units/ml, 17-AEP 1 μg/ml, PU-H71 0.3 μg/ml, CCT018159 10 μg/ml
Experimental: (§1) Cells were fixed with 1% formaldehyde, permeabilized with 0.1% saponin, stained with monoclonal antibodies to melanocyte antigens. Antibodies were obtained with specificity for: MART-1 from Vector Labs (Burlingame, Calif.); gp100 HMB45 from DakoCytomation (Carpinteria, Calif.) and then visualized with goat anti-mouse FITC-conjugated secondary antibody from Invitrogen (Fredrick, Md.). The level of EGFP was determined by flow cytometry of unfixed cells that were washed and resuspended in 1×PBS.
(§2) Cells were plated at a density of 1×10^5 in 1 ml of medium in a 24-well plate and cultured for varying times as indicated in results. Typically, 3 days of culture in the presence of Hsp90 inhibitors was optimal for the functional studies performed. After incubation, cells were collected by trypsinization and then evaluated by flow cytometry.
(§3) Intracellular staining and flow cytometric analyses of cytoplasmic Melan-A/MART-1, and gp100 expression were performed as described previously. Cells were fixed with 1% formaldehyde, permeabilized with 0.1% saponin, stained with monoclonal antibodies to melanocyte antigens. Antibodies were obtained with specificity for: Melan-A/MART-1 from Vector Labs (Burlingame, Calif.); gp100/HMB45 from DakoCytomation (Carpinteria, Calif.) and then visualized with goat anti-mouse FITC-conjugated secondary antibody from Invitrogen (Frederick, Md.). The level of EGFP was determined by flow cytometry of unfixed cells washed and resuspended in 1×PBS. Surface staining of MHC Class I was carried out using the antibody W6/32 on cells harvested with Cell Stripper from MediaTech Inc. (Manassas, Va.) and carried out on ice.
(§4) Cell were seeded at 1×10^6 cells in a T25 flask with 10 ml of media for the 4 day IFN-beta pre-treatments. Cells were then harvested and plated in 24 well plate at 1×10^5 cells per well in 1 ml of media for 3 day treatments.
(§5) For surface staining of HLA Class I and II antigens, cells were harvested using CellStripper™ from Mediatech (Manassas, Va.). All staining steps were performed on ice. Following a first incubation with antibody to Class I (W6/32) or Class II (L243) for 30 minutes. Stained cells were washed twice with cold PBS and then stained with a goat anti-mouse FITC secondary antibody to allow for quantitative analysis by flow cytometry. For evaluation of cytoplasmic antigens, including Melan-A/MART-1 and gp100, cells were first fixed in paraformaldehyde and permeabilized with saponin as previously described. Staining for cytoplasmic antigens was carried out at room temperature (22° C.).

MU89 melanoma cell line = assay: Antibody staining and flow cytometry (intracellular Melan-A/MART-1, gp100, TRP-2; surface MHC Class I/II); conditions: MU89 cells; Table 20; single agent or simultaneous combination
Experimental: as §1, §2, §3, §4, §5

[1] = test system: U-118 MG glioma cell line; assay: Antibody staining and flow cytometry (intracellular gp100; surface MHC Class I/II); conditions: U118 cells; Table 20; single agent or simultaneous combination
Experimental: as §1, §2, §3, §4, §5

[2] = test system: HeLa cervical carcinoma cells; assay: Surface antibody staining and flow cytometry (MHC Class I/II); conditions: HeLa cells; Table 20; single agent or simultaneous combination
Experimental: as §3, §4, §5

[3] = test system: MCF-7 breast cancer cells; assay: as above; conditions: MCF-7 cells; Table 20; single agent or simultaneous combination
Experimental: as §3, §4, §5

U2-OS osteosarcoma cells = assay: as above; conditions: U2-OS cells; Table 20; single agent or simultaneous combination
Experimental: as §3, §4, §5

| Molecule | MHC Class I, geometric mean of surface staining (W6/32) (MUX melanoma cell line) | L243 (MHC Class II surface staining) (MU89 melanoma cell line) | W6/32 (MHC Class I surface staining) (MU89 melanoma cell line) | L243 (MHC Class II surface staining) [1] | W6/32 (MHC Class I surface staining) [1] | L243 (MHC Class II surface staining) [2] | W6/32 (MHC Class I surface staining) [2] | L243 (MHC Class II surface staining) [3] | W6/32 (MHC Class I surface staining) [3] | L243 (MHC Class II surface staining) (U2-OS osteosarcoma cells) | W6/32 (MHC Class I surface staining) (U2-OS osteosarcoma cells) |
| --- | --- | --- | --- | --- | --- | --- | --- | --- | --- | --- | --- |
| CO[C@H]1/C=C\C=C(/C)C(=O)NC2=CC(=O)C(NCCN3CCCC3)=C(C[C@@H](C)C[C@H](OC)[C@H](O)[C@@H](C)/C=C(\C)[C@@H]1OC(N)=O)C2=O [17-AEP] | 219 | – | – | – | – | – | – | – | – | – | – |
| IFN-B (protein, UniProt P01574 22-187, looked up) Interferon beta: MSYNLLGFLQRSSNFQCQKLLWQLNGRLEYCLKDRMNFDIPEEIKQLQQFQKEDAALTIYEMLQNIFAIFRQDSSSTGWNETIVENLLANVYHQINHLKTVLEEKLEKEDFTRGKLMSSLHLKRYYGRILHYLKAKEYSHCAWTIVRVEILRNFYFINRLTGYLRN | – | 1.8 | 65.1 | 2.7 | 299.2 | 5.2 | 370.8 | 10.3 | 368.2 | 3.2 | 416.6 |
